# Measurements: PubChem BioAssay AID463165 (Johns Hopkins Ion Channel Center, 2010)
# Sequences of proteins named here, by UniProt entry; tags and fusion partners are left off.
# UniProt P49798, whole entry: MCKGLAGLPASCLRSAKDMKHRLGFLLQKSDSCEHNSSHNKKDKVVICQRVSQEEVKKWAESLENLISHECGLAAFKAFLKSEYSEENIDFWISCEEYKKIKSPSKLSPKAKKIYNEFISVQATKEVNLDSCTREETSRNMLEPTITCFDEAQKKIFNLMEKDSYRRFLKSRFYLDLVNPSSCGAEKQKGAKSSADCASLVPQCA
# Only a part is listed here, and it is no random draw. The source made the active and inactive calls.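 Rule for the calls: active = B-score, a plate-corrected calcium signal, over three deviations above library mean, with baseline fluorescence within five deviations of library mean; inactive = the rest.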
# Target: Regulator of G-protein signaling 4 (Homo sapiens) (UniProt P49798)
# Experiment: RGS4 inhibitors, primary screen, cell-based, HEK293 M3R inducible RGS4, calcium flux (AID 463165);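 note: RGS4 expression induced by doxycycline in cells with stable M3 receptor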
# Conditions: Fluo-4 calcium flux, at 10 µM, triggered by carbachol at its EC20
row,SMILES,outcome
1,Fc1ccccc1NC1CCN(Cc2ccccc2)CC1,inactive
2,Cc1ccc(C(=O)NCC2(N3CCCCC3)CCCCC2)o1,inactive
3,COc1cc(OC)cc(C(=O)NCC2(N3CCCCC3)CCCCC2)c1,inactive
4,CN(C)c1ccc(C(=O)NCC2(N3CCCCC3)CCCCC2)cc1,inactive
5,CCN1CCC(Nc2cccc(F)c2)CC1,inactive
6,O=C(O)C1(Nc2ccccc2)CCN(Cc2ccccc2)CC1,inactive
7,CC(C)(C)OC(=O)N1CCC(Nc2ccccc2)CC1,inactive
8,CCCOc1ccc(C(=O)NCC2(N(C)C)CCCCC2)cc1,inactive
9,CN1CCC(Nc2ccc(F)c(Cl)c2)CC1,inactive
10,CCOc1ncccc1C(=O)NCC1(N2CCOCC2)CCCCC1,inactive
11,CN1CCC(Nc2ccc(Cl)cc2)CC1,inactive
12,CCCOc1ccc(C)cc1CN(CCCl)CCCl,inactive
13,COc1cccc(C(=O)N(c2cc(C)cc(C)c2)C2CCN(C(=O)OC(C)(C)C)CC2)c1,inactive
14,COc1cc(OC)cc(C(=O)NCC2(N3CCOCC3)CCCCC2)c1,inactive
15,CCC(CO)(C(=O)OC1CN2CCC1CC2)c1ccccc1 (centres undefined),inactive
16,COc1ccc(C(=O)NCC2(N3CCOCC3)CCCCC2)cc1OC,inactive
17,O=C(OC1CN2CCC1CC2)C1c2ccccc2C=Cc2ccccc21 (centres undefined),inactive
18,CCc1cc(C(=O)NCC2(N3CCCCC3)CCCCC2)sc1C,inactive
19,CCOC(=O)N1CCC(Nc2ccc(C)cc2)CC1,inactive
20,N/C(=N\O)c1c(N)no[n+]1[O-],inactive

row,SMILES,outcome
1,N#Cc1ccc(C(=O)NCC2(N3CCCCC3)CCCCC2)cc1,inactive
2,CC(C)(C)OC(=O)N1CCC(N(C(=O)c2ccccc2)c2ccc(Cl)cc2)CC1,inactive
3,CN(C)C1(CNC(=O)c2cccc(C#N)c2)CCCCC1,inactive
4,CCCN1CCC(Nc2cc(OC)cc(OC)c2)CC1,inactive
5,c1ccc(CN2CCC(Nc3ccccc3)CC2)cc1,inactive
6,N#CC1(Nc2ccccc2)CCN(CCc2ccccc2)CC1,inactive
7,CCN1CCC(Nc2ccc(Cl)cc2)CC1,inactive
8,O=C(NCC1(N2CCCCC2)CCCCC1)c1cccc([N+](=O)[O-])c1,inactive
9,O=C(NCC1(N2CCCCC2)CCCCC1)c1ccc(OC(F)F)cc1,inactive
10,O=C(NCC1(N2CCOCC2)CCCCC1)c1cc(=O)[nH]c2ccccc12,inactive
11,COc1cc(C(=O)NCC2(N3CCCCC3)CCCCC2)ccc1OC(F)F,inactive
12,COc1ccc(NC2CCN(C(=O)OC(C)(C)C)CC2)cc1,inactive
13,CN1CCN(CCOC(=O)C(O)(c2ccccc2)c2ccccc2)CC1,inactive
14,O=C(NCC1(N2CCCCC2)CCCCC1)c1cccc(C(F)(F)F)c1,inactive
15,COc1cc(OC)c(C(=O)NCC2(N(C)C)CCCCC2)cc1OC,inactive
16,CC(C)c1ccc(NC2CCN(C(=O)OC(C)(C)C)CC2)cc1,inactive
17,CN(C)c1cccc(C(=O)NCC2(N3CCCCC3)CCCCC2)c1,inactive
18,COc1ccc(CN(CCCl)CCCl)cc1Cl,inactive
19,CCCOc1ccc(C(=O)NCC2(N(C)C)CCCCC2)cc1OC,inactive
20,CN1CCC(Nc2cccc(F)c2)CC1,inactive

row,SMILES,outcome
1,CSc1ccccc1C(=O)NCC1(N2CCCCC2)CCCCC1,inactive
2,COc1ccc(C(=O)NCC2(N3CCCCC3)CCCCC2)c(OC)c1OC,inactive
3,CC(C)(C)OC(=O)N1CCC(N(C(=O)c2ccccc2)c2ccc(F)cc2)CC1,inactive
4,COc1ccc(C(=O)NCC2(N3CCCCC3)CCCCC2)cc1,inactive
5,O=C(NCC1(N2CCCCC2)CCCCC1)c1cccs1,inactive
6,O=C(NCC1(N2CCCCC2)CCCCC1)c1ccc(=O)[nH]c1,inactive
7,O=C(OC1CN2CCC1CC2)C1c2ccccc2Oc2ccccc21 (centres undefined),inactive
8,N#CC1(Nc2ccccc2)CCN(Cc2ccccc2)CC1,inactive
9,CCOC(=O)N1CCC(Nc2ccc(OC)cc2)CC1,inactive
10,Cc1cc(C)cc(N(C(=O)c2ccccc2)C2CCN(C(=O)OC(C)(C)C)CC2)c1,inactive
11,O=C(NCC1(N2CCCCC2)CCCCC1)c1ccc(Cl)nc1,inactive
12,O=C(NCC1(N2CCOCC2)CCCCC1)c1cc2ccccc2o1,inactive
13,CCOC(=O)N1CCC(Nc2ccc(F)cc2)CC1,inactive
14,COc1ccc(NC2CCN(CCc3ccccc3)CC2)c(OC)c1,inactive
15,O=C(NCC1(N2CCCCC2)CCCCC1)c1ccc(F)cc1,inactive
16,CCOc1ccc(C)cc1CN(CCCl)CCCl,inactive
17,Cc1ccc(OCC(C)C)c(CN(CCCl)CCCl)c1,inactive
18,COc1cc(C(=O)NCC2(N(C)C)CCCCC2)ccc1OC(F)F,inactive
19,CCOC(=O)N1CCC(Nc2cccc(C)c2)CC1,inactive
